# Literature values, collected in PMC9694544, “Conteltinib (CT-707) in patients with advanced ALK-positive non-small cell lung cancer: a multicenter, open-label, first-in-human phase 1 study” (BMC Medicine, 2022).
# Where two headings read alike, the source gives them in different places.
# What was measured:
# [1] = tested on: patients with ALK-positive NSCLC; settings: cited from earlier work
# ALK-positive NSCLC = settings: cited from earlier work; for ORR / median PFS: at the dose ≥ RP2D
# [2] = patients who received crizotinib previously
Compound,incidence of grade ≥ 3 TRAEs [1] [%],rash [1] [%],visual effects [1] [%],"response rates (ALK-positive NSCLC; locally advanced or metastatic NSCLC harboring ALK rearrangement, across multiple studies)",ORR (ALK-positive NSCLC; ALK TKI-naïve patients) [%],median PFS (ALK-positive NSCLC; ALK TKI-naïve patients) [months],ORR (ALK-positive NSCLC; [2]) [%],median PFS (ALK-positive NSCLC; [2]) [months]
C[C@@H](Oc1cc(-c2cnn(C3CCNCC3)c2)cnc1N)c1c(Cl)ccc(F)c1Cl [Crizotinib],24,11,64,approximately 60%,,,,
CCc1cc2c(cc1N1CCC(N3CCOCC3)CC1)C(C)(C)c1[nH]c3cc(C#N)ccc3c1C2=O [alectinib],26,,,,93.5,34.8,56.7,9.6
